Activity calls are given as the source filed them. The calls are words filed in the database; no cut-off is given here.
Assays:
[1] = target: Acetylcholinesterase (Homo sapiens) (UniProt P22303); experiment: Reactivation of POX-inhibited human recombinant AChE assessed as reactivation rate constant using ATC as substrate at pH 10.5 and 17 degreeC followed by substrate addition by Ellman's method based spectrophotometry; settings: filed as activator
[2] = system: Zone of skin; experiment: Increase in POX decontamination in porcine skin assessed as decrease POX half life by LC-MS analysis; settings: Sus scrofa; Skin of body
[3] = target: Acetylcholinesterase (Electrophorus electricus) (UniProt O42275); experiment: Reactivation of POX-inhibited electric eel recombinant AChE assessed as reactivation rate constant using ATC as substrate at 1 mM followed by substrate addition by Ellman's method based spectrophotometry; design: scale not given: the % may be the effect or the level left; settings: filed as activator
[4] = target: Acetylcholinesterase (Homo sapiens) (UniProt P22303); experiment: Reactivation of CPS-inhibited human recombinant AChE assessed as reactivation rate constant using ATC as substrate at less than 0.1 mM followed by substrate addition by Ellman's method based spectrophotometry; design: scale not given: the % may be the effect or the level left
[5] = target: Acetylcholinesterase (Homo sapiens) (UniProt P22303); experiment: Reactivation of POX-inhibited human recombinant AChE assessed as reactivation rate constant using ATC as substrate at pH 10.5 and 37 degreeC followed by substrate addition by Ellman's method based spectrophotometry; settings: filed as activator
[6] = target: Acetylcholinesterase (Homo sapiens) (UniProt P22303); experiment: Reactivation of CPS-inhibited human recombinant AChE assessed as reactivation rate constant using ATC as substrate at 1 mM followed by substrate addition by Ellman's method based spectrophotometry; design: scale not given: the % may be the effect or the level left
[7] = target: Acetylcholinesterase (Electrophorus electricus) (UniProt O42275); experiment: Reactivation of MAL-inhibited electric eel recombinant AChE assessed as reactivation rate constant using ATC as substrate at 0.1 to 1 mM followed by substrate addition by Ellman's method based spectrophotometry; settings: filed as activator, dose 0.1-1 mM
[8] = target: Acetylcholinesterase (Electrophorus electricus) (UniProt O42275); experiment: Reactivation of POX-inhibited electric eel recombinant AChE assessed as reactivation rate constant using ATC as substrate at 0.1 mM followed by substrate addition by Ellman's method based spectrophotometry; design: scale not given: the % may be the effect or the level left
[9] = system: Zone of skin; experiment: Increase in POX decontamination in porcine skin assessed as decrease POX skin penetration by LC-MS analysis; settings: Sus scrofa; Skin of body
[10] = target: Acetylcholinesterase (Homo sapiens) (UniProt P22303); experiment: Reactivation of POX-inhibited human recombinant AChE assessed as reactivation rate constant using ATC as substrate at 1 mM followed by substrate addition by Ellman's method based spectrophotometry; design: scale not given: the % may be the effect or the level left; settings: filed as activator
[11] = target: Acetylcholinesterase (Electrophorus electricus) (UniProt O42275); experiment: Reactivation of CPS-inhibited electric eel recombinant AChE assessed as reactivation rate constant using ATC as substrate at 0.1 to 1 mM followed by substrate addition by Ellman's method based spectrophotometry; settings: filed as activator, dose 0.1-1 mM
[12] = target: Acetylcholinesterase (Homo sapiens) (UniProt P22303); experiment: Reactivation of POX-inhibited human recombinant AChE assessed as reactivation rate constant using ATC as substrate at pH 8 and 37 degreeC followed by substrate addition by Ellman's method based spectrophotometry; settings: filed as activator
[13] = target: Acetylcholinesterase (Homo sapiens) (UniProt P22303); experiment: Reactivation of POX-inhibited human recombinant AChE assessed as reactivation rate constant using ATC as substrate at pH 8 and 17 degreeC followed by substrate addition by Ellman's method based spectrophotometry; settings: filed as activator
[14] = target: Acetylcholinesterase (Electrophorus electricus) (UniProt O42275); experiment: Reactivation of POX-inhibited electric eel recombinant AChE assessed as reactivation rate constant using ATC as substrate followed by substrate addition by Ellman's method based spectrophotometry; settings: filed as activator
[15] = target: Acetylcholinesterase (Homo sapiens) (UniProt P22303); experiment: Effect on human recombinant AChE assessed as decrease in enzyme activity using ATC as substrate at 1 mM followed by substrate addition by Ellman's method based spectrophotometry; settings: filed as activator
[16] = target: Acetylcholinesterase (Homo sapiens) (UniProt P22303); experiment: Reactivation of POX-inhibited human recombinant AChE assessed as reactivation rate constant using ATC as substrate at 0.5 mM followed by substrate addition by Ellman's method based spectrophotometry; settings: filed as activator
[17] = target: Acetylcholinesterase (Homo sapiens) (UniProt P22303); experiment: Effect on human recombinant AChE assessed as increase in enzyme activity using ATC as substrate at 0.1 to 1 mM followed by substrate addition by Ellman's method based spectrophotometry; settings: dose 0.1-1 mM

Sequences of proteins named here, by UniProt entry; tags and fusion partners are left off. A change or cut given only in a name is not applied to a line headed by its entry.
UniProt P22303: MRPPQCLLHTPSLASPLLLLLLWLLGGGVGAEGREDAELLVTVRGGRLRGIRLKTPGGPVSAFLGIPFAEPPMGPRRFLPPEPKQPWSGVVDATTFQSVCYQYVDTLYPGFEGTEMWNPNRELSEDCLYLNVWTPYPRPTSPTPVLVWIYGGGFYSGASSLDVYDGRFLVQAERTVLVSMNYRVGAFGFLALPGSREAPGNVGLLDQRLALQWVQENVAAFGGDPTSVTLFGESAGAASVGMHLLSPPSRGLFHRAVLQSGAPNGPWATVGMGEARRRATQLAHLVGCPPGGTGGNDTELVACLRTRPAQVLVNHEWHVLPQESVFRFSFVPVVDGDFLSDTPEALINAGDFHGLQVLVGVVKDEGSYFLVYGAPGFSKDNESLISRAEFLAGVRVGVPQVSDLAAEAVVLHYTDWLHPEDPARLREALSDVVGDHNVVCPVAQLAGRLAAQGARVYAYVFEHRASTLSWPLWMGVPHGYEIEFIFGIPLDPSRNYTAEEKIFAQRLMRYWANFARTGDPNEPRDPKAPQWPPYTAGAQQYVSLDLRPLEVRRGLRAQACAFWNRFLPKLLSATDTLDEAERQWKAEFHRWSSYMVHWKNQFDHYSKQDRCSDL
UniProt O42275: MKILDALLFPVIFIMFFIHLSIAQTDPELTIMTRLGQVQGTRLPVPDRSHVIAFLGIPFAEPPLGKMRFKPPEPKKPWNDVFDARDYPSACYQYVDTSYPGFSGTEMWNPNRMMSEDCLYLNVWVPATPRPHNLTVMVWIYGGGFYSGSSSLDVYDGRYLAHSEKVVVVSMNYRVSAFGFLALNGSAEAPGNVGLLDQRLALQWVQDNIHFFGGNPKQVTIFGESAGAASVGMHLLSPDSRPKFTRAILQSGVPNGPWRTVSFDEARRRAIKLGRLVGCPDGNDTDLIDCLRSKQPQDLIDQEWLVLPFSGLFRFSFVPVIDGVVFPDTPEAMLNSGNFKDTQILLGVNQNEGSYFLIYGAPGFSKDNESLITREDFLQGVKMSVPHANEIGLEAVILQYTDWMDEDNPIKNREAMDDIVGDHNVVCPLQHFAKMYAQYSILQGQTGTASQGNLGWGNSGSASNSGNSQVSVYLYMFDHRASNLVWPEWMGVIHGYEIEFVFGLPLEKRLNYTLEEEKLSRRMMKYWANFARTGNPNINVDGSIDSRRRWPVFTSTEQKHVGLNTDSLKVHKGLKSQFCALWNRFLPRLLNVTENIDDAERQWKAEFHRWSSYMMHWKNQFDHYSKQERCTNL

Compound | Activity [1] | Activity [2] | Activity [3] [%] | Activity [4] [%] | Activity [5] | Activity [6] [%] | Activity [7] | Activity [8] [%] | Activity [9] | Activity [10] [%] | Activity [11] | Activity [12] | Activity [13] | Activity [14] | inhibition [15] [%] | Activity [16] | Activity [17] [%]
CN(C)CCCNC(=O)/C=N/O | Active | Active | 80 | 2 | Active | 14 | Active | 21 | Active | 66 | Active |  |  |  |  |  | 
CC(=O)/C(C)=N/O | Active |  |  |  | Active |  |  |  |  |  |  |  |  |  |  |  | 
CCN(CC)CCNC(=O)/C=N/O | Active | Active | 80 | 2 | Active | 14 | Active | 21 | Active | 66 | Active | Active | Active | Dde |  |  | 
CN(C)CCNC(=O)/C=N/O |  |  | 80 | 2 |  | 14 | Active |  |  |  | Active |  |  |  |  |  | 
C[N+](C)(C)CCNC(=O)/C=N/O |  |  | 80 | 2 |  | 14 | Active | 21 |  |  | Active | Active | Active |  |  |  | 
O=C(/C=N/O)NCc1ncc[nH]1 | Active |  | 80 | 2 | Active | 14 | Active | 21 |  |  | Active |  |  |  |  |  | 
C[n+]1ccccc1C=NO |  |  |  |  |  |  |  |  |  |  |  |  |  |  | 67 |  | 
O=C(/C=N/O)NCCN1CCCC1 | Active | Active | 80 | 2 | Active | 14 | Active | 21 | Active | 66 | Active |  |  | Dde |  | Active | 
NCCNC(=O)/C=N/O |  |  | 80 | 2 |  | 14 | Active |  |  |  | Active |  |  |  |  |  | 25

— ChEMBL document CHEMBL5120744, “Dual acting oximes designed for therapeutic decontamination of reactive organophosphates via catalytic inactivation and acetylcholinesterase reactivation” (2021)
